Results published in PMC3738572, “Improved Bone Morphogenetic Protein-2 Retention in an Injectable Collagen Matrix Using Bifunctional Peptides” (PLoS ONE, 2013).

Columns and labels:
[1] = system: ectopic bone formation; test: In vivo ectopic bone formation study; design: species or system rat
Procedure: The stock fibrillar collagen (4%) was diluted in PBS containing rhBMP-2 with or without the collagen-BMP bifunctional peptide, to generate a final collagen wt% of 1.5%. The amount of BMP-2 and peptide were optimized using pilot experiments in vivo such that 200 µl of the injected collagen gel contained 2 µg of BMP-2 and a 50-fold molar excess of the peptide.
Male Sprague Dawley rats (150–175 g) were obtained from […], Charles River Laboratories (Raleigh, NC) and acclimated prior to surgery. The surgery was performed under general anesthesia by weight-adapted intraperitoneal injection of Xylazine 2% (Medistar; 12 mg/kg body weight) and Ketamine hydrochloride (Ketaset; 100 mg/mL; 80 mg/kg body weight). The thorax and abdomen were shaved and scrubbed with Betadine and alcohol. Using aseptic technique, two 5 mm incisions were made at the midline so that two subcutaneous pouches were prepared by blunt dissection. Collagen gel (200 µl) containing 2 µg rhBMP-2 with or without collagen-BMP bifunctional peptide (BC-1) was injected into the left or the right side of the subcutaneous region. Each rat received two injections and a total of 20 animals were used in the study. The BMP-2 dose (2 μg) used in this experiment had been determined from preliminary experiments (data not shown). In those experiments, rats were implanted with collagen gel containing either 1 or 5 μg of BMP-2.
The sites containing the injected material were explanted at two weeks and fixed in 10% neutral buffered formalin. The samples were placed in Formical 2000 decalcifier (American Mastertech) for 24 hours followed by Cal-arrest neutralizing solution for one hour. The tissue samples were processed in a Thermo-Electron, Shandon Excelsior Automated Tissue Processor for 14 hours. The process includes additional fixation in 10% buffered neutral formalin, dehydration through an ethanol gradient, and clearing with xylene at 40°C. Tissue was then embedded on a Leica EF 1140 H tissue embedding center in paraffin blocks for sectioning. Paraffin blocks were sectioned at 5 microns on a Reichert-Jung RM2065 microtome using Accu-Edge High Profile disposable stainless steel microtome blades. Three serial sections at intervals of 30 microns were obtained and placed on Super-frost Plus slides for hematoxylin and eosin staining (H&E). Staining was performed using a Sakura DRS-601 automatic slide stainer with a regressive Harris hematoxylin and Eosin Y Alcoholic for histological and morphological examination.
Histological sections were scored based on three criteria: Bone Cross-Sectional Area, Bone Maturity and Cellular Activity. Each segment was scored based on a 0–4 point scale by two observers (blinded to the study) who evaluated the entire implant under 10× magnification.

[2] = target: T1, rhBMP-2 binding to injectable collagen gel (Homo sapiens, UniProt P12643); test: Injectable collagen gel binding assay; conditions: no peptide; rhBMP-2 0.0017 to 100 nM, 1 h on collagen gel at RT; anti-BMP antibody, p-NPP, 405 nm
T1 construct: purchased R&D Systems 355-BM/CF
T1 sequence (P12643 283-396): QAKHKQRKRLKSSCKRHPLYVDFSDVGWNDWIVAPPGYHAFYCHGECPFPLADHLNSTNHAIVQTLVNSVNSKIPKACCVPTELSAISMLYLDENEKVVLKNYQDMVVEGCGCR
Procedure: The injectable collagen gel (0.1 mL) was aliquoted into a polypropylene plate. The plate was blocked with 150 µl of 1% BSA in TBS for 30 min. After spinning for 2 min, the supernatant was removed without disrupting the collagen gel. The bifunctional peptide (30 μM) was mixed with rhBMP-2 (0.0017 to100 nM) in Binding Buffer (125 mM glutamic acid, 10% sucrose, 12.5% glycine, 10% polysorbate 80, 5 M NaCl) for 30 min with gentle agitation. The peptide: rhBMP-2 complex (50 μL) was then added to the collagen gel and incubated at room temperature for 1 h with gentle agitation. The collagen gel was washed three times with TBST and rhBMP-2 was detected with an anti-BMP antibody (R&D Systems MAB3552). The wells were then washed, and an alkaline phosphatase labeled goat anti-mouse secondary antibody was added. After incubation and washing, binding was measured using the chromogenic reagent p-NPP, and absorbance was read at 405 nm.

[3] = individual samples, one table row per sample, average of two blinded observers, rat subcutaneous, 200 µl 1.5% collagen gel, 2 µg rhBMP-2, 2 weeks, H&E, scale 0–4
[4] = rat ectopic model, 2 µg rhBMP-2 in collagen gel, 2 weeks

EC50 [2]: 5.5 nM
Substance: rhBMP-2: recombinant human Bone Morphogenetic Protein-2; R&D Systems 355-BM/CF in vitro, INFUSE (Medtronic) in vivo
Bone area, histology score [1, 3]: 0.0 and 1.1 (1–10% of Implant Shows Evidence of Bone Formation)
Bone maturity, histology score [1, 3]: 0.0 and 1.0
Osteogenic Cellular activity, histology score [1, 3]: 0.5 and 1.8 and 1.5 and 0.8 and 1.3
Maturity of the newly formed bone (in words) [1, 4]: immature/unorganized
Part of the implant covered with new bone [1, 4]: no new bone was detected
Bone formation in preliminary experiments ([1]; rats implanted with collagen gel containing 1 or 5 μg of BMP-2, with or without peptide, data not shown): bone formation at the 5 μg dose but not at the 1 μg dose

Several values for one entry are separate records, joined by “and”; a condition that tells them apart may be missing. Identical values can stand only once.
